Assay results as given in ChEMBL document CHEMBL1828562, “Aryl H-phosphonates 17: (N-aryl)phosphoramidates of pyrimidine nucleoside analogues and their synthesis, selected properties, and anti-HIV activity” (J Med Chem, 2011).

Tests used:
[1] = Cytotoxicity against human CEM-T4 cells assessed as cell viability at 200 uM after 7 days by MTT assay; assay type: cell-based; details: cem-t4, 168 h
[2] = Chemical stability of the compound in RPMI cell culture media assessed as half life at 2 mM; details: 2000 µM
[3] = Chemical stability of the compound in RPMI cell culture media assessed as compound decomposition by HPLC analysis in presence of human MT4 cells
[4] = Cytotoxicity against human CEM-T4 cells assessed as cell viability at 30 uM after 7 days by MTT assay; assay type: cell-based; details: cem-t4, 168 h

SMILES | Activity [1] | t1/2 [2] [h] | Stability [3] | Activity [4]
Cc1cn([C@H]2C[C@H](N=[N+]=[N-])[C@@H](COP(=O)(O)Nc3ccccn3)O2)c(=O)[nH]c1=O | Non-toxic | 117 | Stable | –
O=c1ccn([C@H]2CC[C@@H](COP(=O)(O)Nc3ccccn3)O2)c(=O)[nH]1 | – | 22.1 | – | Non-toxic
